Assay results as given in ChEMBL document CHEMBL4196042, “Novel indanone derivatives as MAO B/H3R dual-targeting ligands for treatment of Parkinson's disease” (Eur J Med Chem, 2018).

The chains behind the UniProt entries cited, without tags or fusion partners. Where a name states a change or a piece, a line headed by the entry shows the natural chain unless it says otherwise.
UniProt Q9Y5N1: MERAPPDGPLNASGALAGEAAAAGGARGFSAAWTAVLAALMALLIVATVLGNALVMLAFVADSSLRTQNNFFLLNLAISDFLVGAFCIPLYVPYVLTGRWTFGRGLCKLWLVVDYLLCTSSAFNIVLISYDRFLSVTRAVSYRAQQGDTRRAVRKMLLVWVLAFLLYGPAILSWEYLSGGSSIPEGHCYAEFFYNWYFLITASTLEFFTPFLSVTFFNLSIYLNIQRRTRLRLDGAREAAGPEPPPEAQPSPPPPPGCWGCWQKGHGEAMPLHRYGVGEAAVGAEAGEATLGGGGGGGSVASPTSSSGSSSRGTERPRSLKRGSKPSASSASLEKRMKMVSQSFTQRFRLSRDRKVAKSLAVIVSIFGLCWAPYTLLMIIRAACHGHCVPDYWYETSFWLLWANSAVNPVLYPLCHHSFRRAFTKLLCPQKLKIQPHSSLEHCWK

Biological target: Histamine H3 receptor (Homo sapiens, UniProt Q9Y5N1)
Assay: Binding affinity to human H3R

Q: How did the Ki turn out when `O=C(c1ccc(OCCCc2cnc[nH]2)cc1)C1CC1` [CIPROXIFAN] was run?
A: 46 to 180 nM
